Measurements: patent publication US6908919B2, “Substituted polycyclic aryl and heteroaryl pyrazinones useful for selective inhibition of the coagulation cascade” (Pharmacia Corporation, priority 1999, dated 2005)
Like-named read-outs stand apart in the source and are kept apart here.

Protein sequences, listed by entry. Tags and fused reporters are not part of them. Residues count along the entry.
UniProt P08709, 61-212 limits assumed: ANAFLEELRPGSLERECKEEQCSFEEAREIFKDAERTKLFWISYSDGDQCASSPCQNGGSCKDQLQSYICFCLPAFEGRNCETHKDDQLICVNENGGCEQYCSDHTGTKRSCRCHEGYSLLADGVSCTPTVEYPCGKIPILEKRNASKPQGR
UniProt P08709, 213-466 limits assumed: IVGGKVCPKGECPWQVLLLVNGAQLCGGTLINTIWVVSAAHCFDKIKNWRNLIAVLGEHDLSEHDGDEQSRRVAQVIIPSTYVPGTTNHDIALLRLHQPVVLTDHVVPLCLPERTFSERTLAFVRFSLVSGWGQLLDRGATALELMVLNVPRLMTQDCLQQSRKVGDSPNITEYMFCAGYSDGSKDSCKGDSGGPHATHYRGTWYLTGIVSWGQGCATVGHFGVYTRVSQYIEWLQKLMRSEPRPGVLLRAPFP
UniProt P00761, 9-231 limits assumed: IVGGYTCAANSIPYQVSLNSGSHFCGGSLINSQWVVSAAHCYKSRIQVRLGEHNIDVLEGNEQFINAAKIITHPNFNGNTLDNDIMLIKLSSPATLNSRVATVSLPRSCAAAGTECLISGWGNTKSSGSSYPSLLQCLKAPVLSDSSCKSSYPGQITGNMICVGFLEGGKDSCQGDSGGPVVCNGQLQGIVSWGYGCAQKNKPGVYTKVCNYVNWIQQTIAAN
UniProt P00742, 41-179 limits assumed: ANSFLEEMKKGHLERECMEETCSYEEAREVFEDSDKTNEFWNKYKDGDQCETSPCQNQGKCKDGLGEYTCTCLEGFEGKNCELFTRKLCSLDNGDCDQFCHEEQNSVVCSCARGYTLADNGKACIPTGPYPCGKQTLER
UniProt P00742, 235-488 limits assumed: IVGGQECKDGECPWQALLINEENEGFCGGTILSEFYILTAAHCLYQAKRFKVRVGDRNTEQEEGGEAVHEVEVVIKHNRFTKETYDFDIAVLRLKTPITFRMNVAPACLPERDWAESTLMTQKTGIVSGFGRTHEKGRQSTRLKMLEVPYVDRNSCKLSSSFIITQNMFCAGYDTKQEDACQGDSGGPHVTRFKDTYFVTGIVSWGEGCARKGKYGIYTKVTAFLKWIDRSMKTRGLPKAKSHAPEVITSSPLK
UniProt P13726, 33-251 partner limits assumed: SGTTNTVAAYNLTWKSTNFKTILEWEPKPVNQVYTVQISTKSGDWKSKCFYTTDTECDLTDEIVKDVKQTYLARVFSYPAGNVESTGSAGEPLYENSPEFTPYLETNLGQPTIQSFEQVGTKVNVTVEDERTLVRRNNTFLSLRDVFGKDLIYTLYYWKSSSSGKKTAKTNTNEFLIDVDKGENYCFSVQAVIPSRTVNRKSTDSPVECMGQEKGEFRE

Key:
[1] = target: recombinant soluble tissue factor and recombinant human factor VIIa (TF-VIIa) (Homo sapiens, UniProt P08709); assay: TF-VIIa Assay; assay type: biochemical
[2] = target: Trypsin (type IX from porcine pancreas) (Sus scrofa, UniProt P00761); assay: Trypsin Assay; conditions: read-out: IC50 Trpysin II
Human factor Xa = Human factor Xa (Homo sapiens, UniProt P00742); assay: Xa Assay; assay type: biochemical; conditions: for IC50: read-out: IC50 Factor Xa; for % Inhibition Factor Xa at 100 μM: at 100 μM inhibitor
[3] = read-out: IC50 TF-VIIa, cell printed 'at 100 μM' without %, cell adds 'at 100 μM'

Row | IC50 ([1]; read-out: IC50 TF-VIIa) [nM] | IC50 [2] [nM] | IC50 (Human factor Xa) [µM] | IC50 [1, 3] [nM] | % Inhibition Factor Xa at 100 μM (Human factor Xa) [% at 100 μM] | IC50 ([1]; read-out: IC50 TF-VIIa, cells without % sign) [nM] | IC50 ([2]; cells without % sign) [nM] | SMILES
1 | 2600 | 1000 | > 30 |  |  |  |  | COc1cccc(-c2c(Cl)nc(NCCc3cccc(Cl)c3)c(=O)n2CC(=O)NCc2ccc(C(=N)N)cc2)c1
2 |  |  |  | 210 | 27 |  |  | N=C(N)c1ccc(CNC(=O)Cn2c(-c3cccc(N)c3)c(Cl)nc(NCCC(=O)O)c2=O)cc1
3 | 1800 | 1400 | > 30 |  |  |  |  | COc1ccccc1-c1c(Cl)nc(NCCc2cccc(Cl)c2)c(=O)n1CC(=O)NCc1ccc(C(=N)N)cc1
4 |  | 1400 | > 30 |  |  |  |  | N=C(N)c1ccc(CNC(=O)Cn2c(-c3ccc(C(F)(F)F)cc3)c(Cl)nc(NCCc3cccc(Cl)c3)c2=O)cc1
5 | 2900 | 1200 | > 30 |  |  |  |  | N=C(N)c1ccc(CNC(=O)Cn2c(-c3cccc(F)c3)c(Cl)nc(NCCc3cccc(Cl)c3)c2=O)cc1
6 | 1600 | 2300 | > 30 |  |  |  |  | N=C(N)c1ccc(CNC(=O)Cn2c(-c3sccc3Br)c(Cl)nc(NCCc3cccc(Cl)c3)c2=O)cc1
7 |  |  |  | 90 | 22 |  |  | N=C(N)c1ccc(CNC(=O)Cn2c(-c3cccc(N)c3)c(Cl)nc(NCC(=O)O)c2=O)cc1
8 |  |  |  |  | 21 |  |  | N=C(N)c1ccc(CNC(=O)Cn2c(-c3cccc(N)c3)c(Cl)nc(NC(CC(=O)O)c3ccccc3)c2=O)cc1 (stereo not shown)
9 |  |  |  |  |  | 5000 | 200 | N=C(N)c1ccc(CNC(=O)Cn2c(-c3ccccc3)c(Cl)nc(NCC34CC5CC(CC(C5)C3)C4)c2=O)cc1
10 | 4800 | 1300 | > 30 |  |  |  |  | N=C(N)c1ccc(CNC(=O)Cn2c(-c3cccc(Br)c3)c(Cl)nc(NCCc3cccc(Cl)c3)c2=O)cc1
11 | 1800 | 1400 | > 30 |  |  |  |  | N=C(N)c1ccc(CNC(=O)Cn2c(-c3cccs3)c(Cl)nc(NCCc3cccc(Cl)c3)c2=O)cc1
12 | 4100 | 4100 | > 30 |  |  |  |  | N=C(N)c1ccc(CNC(=O)Cn2c(-c3ccccc3C(F)(F)F)c(Cl)nc(NCCc3cccc(Cl)c3)c2=O)cc1
13 | 3600 | 1600 | > 30 |  |  |  |  | N=C(N)c1ccc(CNC(=O)Cn2c(-c3cccc(C(F)(F)F)c3)c(Cl)nc(NCCc3cccc(Cl)c3)c2=O)cc1
14 | 6800 | 1100 | > 30 |  |  |  |  | N=C(N)c1ccc(CNC(=O)Cn2c(-c3ccc(F)cc3)c(Cl)nc(NCCc3cccc(Cl)c3)c2=O)cc1
15 |  |  |  |  |  |  | 300 | N=C(N)c1ccc(CNC(=O)Cn2c(-c3ccccc3)c(Cl)nc(NC34CC5CC(CC(C5)C3)C4)c2=O)cc1
16 | 3100 | 1800 | > 30 |  |  |  |  | N=C(N)c1ccc(CNC(=O)Cn2c(-c3ccccc3F)c(Cl)nc(NCCc3cccc(Cl)c3)c2=O)cc1
